Measurements taken from paper PMC4932475, “Evaluation of P-Glycoprotein Inhibitory Potential Using a Rhodamine 123 Accumulation Assay” (Pharmaceutics, 2016).

Amino acid sequences for entries named in this document (tags omitted).
UniProt P08183, whole entry: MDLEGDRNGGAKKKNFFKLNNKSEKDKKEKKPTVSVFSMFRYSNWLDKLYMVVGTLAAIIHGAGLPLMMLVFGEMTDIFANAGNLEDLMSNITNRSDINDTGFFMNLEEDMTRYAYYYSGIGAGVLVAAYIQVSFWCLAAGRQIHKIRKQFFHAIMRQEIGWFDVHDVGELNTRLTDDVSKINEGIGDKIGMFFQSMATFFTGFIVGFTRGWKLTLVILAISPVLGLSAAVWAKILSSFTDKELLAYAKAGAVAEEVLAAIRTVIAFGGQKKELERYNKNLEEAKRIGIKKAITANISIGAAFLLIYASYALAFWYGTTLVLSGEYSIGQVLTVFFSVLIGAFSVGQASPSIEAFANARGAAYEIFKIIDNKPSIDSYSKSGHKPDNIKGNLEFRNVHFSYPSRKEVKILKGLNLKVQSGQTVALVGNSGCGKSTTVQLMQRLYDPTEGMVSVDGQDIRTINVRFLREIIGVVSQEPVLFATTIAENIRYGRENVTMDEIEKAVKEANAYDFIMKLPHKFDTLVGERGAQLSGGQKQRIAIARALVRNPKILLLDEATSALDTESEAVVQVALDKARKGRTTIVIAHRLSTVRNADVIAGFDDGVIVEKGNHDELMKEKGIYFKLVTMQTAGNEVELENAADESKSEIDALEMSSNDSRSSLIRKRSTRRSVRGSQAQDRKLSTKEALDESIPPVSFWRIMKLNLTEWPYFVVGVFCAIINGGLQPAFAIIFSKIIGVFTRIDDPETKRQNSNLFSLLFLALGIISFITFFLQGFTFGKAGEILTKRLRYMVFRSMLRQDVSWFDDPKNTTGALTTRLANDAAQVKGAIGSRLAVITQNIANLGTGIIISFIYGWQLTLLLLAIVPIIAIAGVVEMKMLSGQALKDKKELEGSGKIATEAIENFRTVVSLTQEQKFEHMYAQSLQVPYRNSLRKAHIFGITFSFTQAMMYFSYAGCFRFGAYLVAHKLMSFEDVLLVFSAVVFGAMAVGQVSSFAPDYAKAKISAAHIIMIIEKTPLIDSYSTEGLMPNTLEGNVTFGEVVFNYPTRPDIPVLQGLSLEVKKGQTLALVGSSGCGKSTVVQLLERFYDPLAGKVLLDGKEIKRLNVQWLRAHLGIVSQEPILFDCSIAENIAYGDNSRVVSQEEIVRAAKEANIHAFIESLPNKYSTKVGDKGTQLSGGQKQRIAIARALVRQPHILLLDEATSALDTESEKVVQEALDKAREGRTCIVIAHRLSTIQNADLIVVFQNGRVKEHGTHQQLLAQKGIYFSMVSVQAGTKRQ

Biological target: P-gp (Homo sapiens, UniProt P08183)
Assay: cell-based

IC50: 19.4 ± 1.5 µM
Structure (SMILES): COC(=O)C1=C(C)NC(C)=C(C(=O)OCCN(C)Cc2ccccc2)C1c1cccc([N+](=O)[O-])c1 (stereo not shown) [Nicardipine, nicardipine]
